Measurements published in patent US20040176431A1, “Antiproliferative 2-(sulfo-phenyl)-aminothiazole derivatives and pharmaceutical compositions, and methods for their use” (Pfizer, Inc., priority 2003, published 2004).

The chains behind the UniProt entries cited, without tags or fusion partners. Residues count along the entry.
UniProt P11802, whole entry: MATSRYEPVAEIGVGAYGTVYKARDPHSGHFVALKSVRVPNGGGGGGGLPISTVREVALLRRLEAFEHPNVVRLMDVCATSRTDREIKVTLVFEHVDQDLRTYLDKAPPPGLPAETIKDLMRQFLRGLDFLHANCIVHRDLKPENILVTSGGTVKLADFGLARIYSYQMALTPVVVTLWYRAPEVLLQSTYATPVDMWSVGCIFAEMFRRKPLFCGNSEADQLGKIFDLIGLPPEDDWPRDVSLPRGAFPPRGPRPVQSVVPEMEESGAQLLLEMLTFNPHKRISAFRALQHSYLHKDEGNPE
UniProt P30281, 1-264 partner limits assumed: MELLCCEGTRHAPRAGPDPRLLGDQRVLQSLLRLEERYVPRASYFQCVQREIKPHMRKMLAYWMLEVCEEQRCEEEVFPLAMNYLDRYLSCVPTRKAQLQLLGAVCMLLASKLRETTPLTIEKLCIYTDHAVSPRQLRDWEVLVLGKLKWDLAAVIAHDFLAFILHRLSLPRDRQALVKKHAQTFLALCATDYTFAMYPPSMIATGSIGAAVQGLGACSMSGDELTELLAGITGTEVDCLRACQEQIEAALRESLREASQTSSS

Experiments:
[1] = test system: HCT-116 cells; assay: Inhibition of cell growth (MTT tetrazolium salt assay); conditions: read-out: HCT116 IC50, 50% inhibition of growth, first value of cell
Method: Inhibition of cell growth was measured using the tetrazolium salt assay, which is based on the ability of viable cells to reduce 3-(4,5-dimethylthiazol-2-yl)-2,5-[2H]-diphenyltetrazolium bromide (MTT) to formazan (Mosmann, J. Immunol. Meth., 65, 55-63 (1983)). The water-insoluble purple formazan product was then detected spectrophotometrically. HCT-116 cells were grown in 96-well plates. Cells were plated in the appropriate medium at a volume of 135 μl/well in either McCoy's 5A Medium. Plates were incubated for four hours before addition of inhibitor compounds. Different concentrations of inhibitor compounds were added in 0.5% (v/v) dimethylsulfoxide (15 μL/well), and cells were incubated at 37° C. (5% CO2) for four to six days (depending on cell type). At the end of the incubation, MTT was added to a final concentration of 0.2 mg/mL, and cells were incubated for 4 hours more at 37° C. After centrifugation of the plates and removal of medium, the absorbance of the formazan (solubilized in dimethylsulfoxide) was measured at 540 nm. The concentration of inhibitor compound causing 50%(IC50) or 90%(IC50) inhibition of growth was determined from the linear portion of a semi-log plot of inhibitor concentration versus percentage inhibition. All results were compared to control cells treated only with 0.5% (v/v) dimethylsulfoxide.

[2] = target: CDK4/cyclin D3 (Homo sapiens, UniProt P11802); assay: Inhibition of CDK4/Cyclin D retinoblastoma kinase activity; conditions: read-out: Ki CDK4/D3; apparent Ki, Rb fragment substrate

IC50 [1] | Ki [2] | SMILES
> 25000 nM | – | Nc1nc(Nc2ccc(S(=O)(=O)NCC3CCNCC3)cc2)sc1C(=O)c1c(F)cccc1F
610 nM | 5.5 nM | Cc1cc(C(=O)c2sc(Nc3ccc(S(N)(=O)=O)cc3)nc2N)c(C)s1
